Patent US20140200332 (published 2014)

The chains behind the UniProt entries cited, without tags or fusion partners. Residues count along the entry.
UniProt P01375, 77-233: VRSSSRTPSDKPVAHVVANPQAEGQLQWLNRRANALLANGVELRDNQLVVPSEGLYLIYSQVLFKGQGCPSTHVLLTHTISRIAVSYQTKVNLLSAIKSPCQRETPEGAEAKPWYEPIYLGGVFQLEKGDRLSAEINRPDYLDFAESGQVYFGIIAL

Molecular target: human TNF (human, UniProt P01375)
Experiment: SPR

B1: Remicade (infliximab) (antibody, V domains shown)
VH: EVKLEESGGGLVQPGGSMKLSCVASGFIFSNHWMNWVRQSPEKGLEWVAEIRSKSINSATHYAESVKGRFTISRDDSKSAVYLQMTDLRTEDTGVYYCSRNYYGSTYDYWGQGTTLTVSS
VL: DILLTQSPAILSVSPGERVSFSCRASQFVGSSIHWYQQRTNGSPRLLIKYASESMSGIPSRFSGSGSGTDFTLSINTVESEDIADYYCQQSHSWPFTFGSGTNLEVKR
  Kd: 94.5 pM
